Broadly, the IC50 is the concentration that gives 50% inhibition.

The source of these data is patent US7816331B2, “Substituted indazole-O-glucosides” (Janssen Pharmaceutica NV, priority 2003, dated 2010).

This experiment has as its target T1, human SGLT2 (Homo sapiens, UniProt P31639).
T1 construct: expressed in transfected cells
T1 sequence (P31639 1-672): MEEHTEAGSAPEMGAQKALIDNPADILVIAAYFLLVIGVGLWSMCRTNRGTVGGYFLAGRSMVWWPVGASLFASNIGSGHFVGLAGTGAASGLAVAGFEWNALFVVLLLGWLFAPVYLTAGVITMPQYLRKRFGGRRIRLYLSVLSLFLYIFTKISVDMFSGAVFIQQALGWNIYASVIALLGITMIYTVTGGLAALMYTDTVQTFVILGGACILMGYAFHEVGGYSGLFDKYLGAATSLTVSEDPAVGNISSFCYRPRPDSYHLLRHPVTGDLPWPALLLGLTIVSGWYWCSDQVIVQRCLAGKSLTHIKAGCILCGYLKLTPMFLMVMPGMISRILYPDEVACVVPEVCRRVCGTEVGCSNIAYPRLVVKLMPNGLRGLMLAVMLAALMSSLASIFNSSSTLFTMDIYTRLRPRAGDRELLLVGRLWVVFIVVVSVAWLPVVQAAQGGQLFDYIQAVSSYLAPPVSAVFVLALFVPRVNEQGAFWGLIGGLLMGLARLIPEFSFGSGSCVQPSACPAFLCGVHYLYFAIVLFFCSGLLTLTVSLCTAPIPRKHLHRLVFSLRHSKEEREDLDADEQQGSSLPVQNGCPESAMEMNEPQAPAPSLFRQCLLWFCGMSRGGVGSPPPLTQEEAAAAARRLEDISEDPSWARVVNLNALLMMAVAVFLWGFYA
The experiment is described as follows: Cell-based assay for sodium-dependent glucose transport (14C-AMG uptake), CHOK-SGLT2. Conditions: CHO-K1 cells stably expressing human SGLT2; Na-dependent 14C-AMG uptake; read-out: CHOK-SGLT2 IC50 (uM) ± SEM. The protocol: Cloning of the human SGLT1 and human SGLT2 cDNAs and construction of the mammalian expression vector: The human SGLT1 cDNA (Genbank M24847) was cloned from human small intestine. Human SGLT2 cDNA (Genbank M95549) was cloned from human kidney. Both full cDNAs were subcloned into pcDNA and sequenced to verify the integrity of the construct. Generation of CHO-K1 cells stably expressing human SGLT1 or human SGLT2: Transfection of CHO-K1 cells was performed using DMRIE-C reagent (Life Technologies, Gaithersburg, Md.). Transfectants were then selected in the presence of the antibiotic G418 (Gibco-BRL, Grand Island, N.Y.) at 400 μg/ml. Individual clones were then characterized using the functional assay described below. Cell-based assay for sodium-dependent glucose transport: Cell lines stably expressing human SGLT1 or SGLT2 were then used for functional analysis of Na^+-dependent glucose uptake. Briefly, cells were plated at a density of 65,000 cells per well in a 96-well plate and allowed to grow for 48 hours. […] After aspiration, cells were solubilized using Microscint 20 (Packard, Meriden, Conn.) and Na-dependent ^14C-AMG uptake was quantified by measuring radioactivity. Plates were counted in a TopCount (Packard, Meriden, Conn.). […]

As for `Cc1cc(O[C@@H]2OC(CO)[C@@H](O)[C@H](O)[C@H]2O)c2c(CCc3ccc4occc4c3)n[nH]c2c1` (stereo partly drawn) [Example 13, 2-[3-(2-Benzofuran-5-yl-ethyl)-6-methyl-1H-indazol-4-yloxy]-β-D-glucopyranoside], the IC50 turned out to be 0.491 ± 0.056 µM.
